Experimental data from ChEMBL document CHEMBL4184231, “Selective inhibition of monoamine oxidase A by hispidol” (Bioorg Med Chem Lett, 2018).

Amino acid sequences for entries named in this document (tags omitted).
UniProt P27338, whole entry: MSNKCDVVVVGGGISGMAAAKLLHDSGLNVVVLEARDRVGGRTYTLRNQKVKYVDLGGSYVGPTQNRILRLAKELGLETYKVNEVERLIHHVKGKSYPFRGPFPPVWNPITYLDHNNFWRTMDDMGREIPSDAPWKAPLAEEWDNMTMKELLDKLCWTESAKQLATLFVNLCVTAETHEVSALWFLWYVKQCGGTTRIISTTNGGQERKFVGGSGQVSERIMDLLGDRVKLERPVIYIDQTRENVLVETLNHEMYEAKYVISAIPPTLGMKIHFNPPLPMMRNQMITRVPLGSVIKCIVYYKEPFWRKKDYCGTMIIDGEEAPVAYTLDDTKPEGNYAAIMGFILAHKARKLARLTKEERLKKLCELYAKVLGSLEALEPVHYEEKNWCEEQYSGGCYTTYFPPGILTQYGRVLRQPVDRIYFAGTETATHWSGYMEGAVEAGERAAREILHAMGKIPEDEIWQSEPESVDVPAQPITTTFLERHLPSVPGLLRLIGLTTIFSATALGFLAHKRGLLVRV

Target: Amine oxidase [flavin-containing] B (Homo sapiens, UniProt P27338)
Test: Irreversible inhibition of human recombinant MAOB assessed as residual enzyme activity at 2 time IC50 pre-incubated for 30 mins followed by 0.06 mM benzylamine substrate addition

Compound `C#CCN(C)Cc1ccccc1` [PARGYLINE] has an Activity of 24%.
